By UniProt entry, the sequences of proteins in these tests, tags left out. Residues count along the entry.
UniProt P33072, 170-418 limits assumed: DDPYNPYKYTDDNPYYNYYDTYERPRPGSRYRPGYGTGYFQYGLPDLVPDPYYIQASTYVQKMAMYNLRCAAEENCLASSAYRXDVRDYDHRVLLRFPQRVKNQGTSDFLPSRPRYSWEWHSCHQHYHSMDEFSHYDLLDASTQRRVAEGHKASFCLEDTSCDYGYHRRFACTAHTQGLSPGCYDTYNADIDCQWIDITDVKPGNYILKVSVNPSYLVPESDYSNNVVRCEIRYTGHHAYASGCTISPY

In patent publication US20080293936A1, “Novel inhibitors of lysyl oxidase” (priority 2007, published 2008):

Tests used:
[1] = biological target: T1, Lysyl oxidase (Bos taurus, UniProt P33072); assay: Lysyl oxidase inhibition, peroxidase-coupled fluorometric activity test
Method: Lysyl oxidase was isolated form bovine aorta, modified according to Williams und Kagan (1985) Assessment of lysyl oxidase variants by urea gel electrophoresis: evidence against disulfide isomers as bases of the enzyme heterogeneity. Anal. Biochem. 149: 430-7, and Kagan und Sullivan (1982) Lysyl oxidase: preparation and role in elastin biosynthesis. Methods Enzymol. 82(Pt A): 637-50. The enzyme preparation was carried out at 4° C. with fresh material from bovine aorta. The aorta was homogenized for 90 seconds in 2.5. ml buffer per gram of tissue. The buffer consisted of 16 mM potassium phosphate, 150 mM sodium chloride and 1 mM phenylmethylsulfonylfluoride. The homogenized mixture was centrifuged for 20 minutes at 11,000 g. […]
To determine the specific enzyme activity of lysyl oxidase a coupled activity test with fluorescence was applied (modified according to nach Trackman P C, Zoski C G, Kagan, H M (1981) Development of a peroxidase-coupled fluorometric assay for lysyl oxidase. Anal. Biochem. 113: 336-342). […]
The fluorescence of the reaction solution was determined at an excitation wavelength of 350 nm and measurement of emission was carried out at 425 nm at 37° C. Before the addition of the sample solution fluorescence was determined by calibration with 1 nmol hydrogen peroxide. This increase in fluorescence was equivalent to a turnover of 1 nmol 1,5-diaminopentane. […]

[2] = biological target: T1, Lysyl oxidase; assay: Kinetic investigation: dialysis of lysyl oxidase-inhibitor complexes against inhibitor-free buffer, recovery of activity; conditions: for vt/vmax: preincubation at 10-fold IC50
Method: Lysyl oxidasee and lysyl oxidase inhibitors of the structural formulas (XX)-(XXIII) (Table 1) were coincubated at concentrations that were 10-fold over the respective IC50 of the inhibitor and were subsequently dialyzed against 0.5 M borax buffer at pH 8.2 without added inhibitor. The dialysis buffer was exchanged twice during the first hour and subsequently three times in hourly intervals. The volume against which was dialyzed was at least 100-fold greater than the volume of the lysyl oxidase preparation in the dialysis tube. After 2, 4, 5 und 19 h lysyl oxidase activity was measured as described in Example 2. In a parallel assay a dialysis with a non-inhibited lysyl oxidase preparation was carried out to determine the effect of spontaneous activity loss during dialysis and to obtain a reference value (100% activity, positive control). From the obtained change in time-dependent activity it was possible to calculate the dissociation velocity constants of the inhibitor compounds, the half life times of the enzyme-inhibitor complexes and the association velocity constants. In the following section it is derived how these kinetic parameters can be determined form the measurement of the reaction velocity with the inhibited fraction at the timepoint t (vt) and the reaction velocity with the positive control (vmax).
Derivations: During dialysis against buffer without inhibitor the complex (EI) consisting of enzyme (E) and inhibitor (I) decays with a dissociation constant of first k−1
The velocity of decay is proportional to the concentration of the enzyme-inhibitor complex:
Rearranging this equation and definite Integration from the initial enzyme-inhibitor-complex concentration ([EI]0) to the concentration of the complex at the measurement time point t ([EI]t) on the left side and from t=0 to t on the right side yields:
The ratio of the reaction velocity when the inhibited enzyme preparation is used at a measurement time point t (vt) to the reaction velocity when the positive control is used (vmax) is dependent on the proportion of the total enzyme concentration in the assay ([E]0) that is present as enzyme-inhibitor-complex concentration at a time point t ([EI]t). The following equation describes this relationship: […]
For reasons of simplification a variable Rt can be defined
Solving the above differential equation and substituting Rt into the equation one obtains: […]
By linear regression with ln Rt and t, k−1 can be determined as the coefficient of slope.
Using k−1 one can calculate the half-life time of the enzyme-inhibitor-complexes (t1/2) as:
To determine the kinetic association constant the equilibrium is considered:
At the particular inhibitor concentration (IC50) at which the reaction velocity is 50% of the reaction velocity of the positive control, the free enzyme concentration ([E]) is approximately equal to the concentration of the enzyme inhibitor complex ([EI])
By substitution into the equilibrium equation and by simple rearrangement one obtains a term for the association constant which is dependent on the dissociation constant determined above and on the IC50:
Results Tables 2a to 2d show the results from reaction velocity measurements at the time points after 0, 120, 270 and 1140 min of dialysis against an inhibitor-free buffer. The relative reaction velocities and the derived constants are provided. In addition, the results of a regression analysis according to Example 3 are provided, from which the kinetic constants from table 3 can be calculated. Results are shown for compounds (XX)-[…].

[3] = regression analysis below Tables 2a-2d

O=c1c(Oc2ccc(CCCO)cc2)c(-n2ccnc2)cnn1-c1ccc(Cl)cc1
IC50 ([1]; Table 1, lysyl oxidase from bovine aorta, 37° C., pH 8.2): 755 nM
IC50 ([1]; Table 3): 755 nM
Rt ([2]; 0 min of dialysis): 0.74
ln Rt ([2]; 0 min of dialysis): −0.3011
vt/vmax ([2]; 0 min of dialysis): 0.26
Rt ([2]; 120 min of dialysis): 0.73
ln Rt ([2]; 120 min of dialysis): −0.3147
vt/vmax ([2]; 120 min of dialysis): 0.27
Rt ([2]; 270 min of dialysis): 0.54
ln Rt ([2]; 270 min of dialysis): −0.6162
vt/vmax ([2]; 270 min of dialysis): 0.46
Rt ([2]; 1,140 min of dialysis): 0
vt/vmax ([2]; 1,140 min of dialysis): 1
k−1 ([2]; Table 3, calculated from slopes): 0.072 h⁻¹
k1 (association velocity constant) ([2]; Table 3, from k−1 and IC50): 26.4 M⁻¹ s⁻¹
k−1 (dissociation velocity constant) [2, 3]: 0.07209 h⁻¹
slope (linear regression of ln Rt against t) [2, 3]: −1.202×10^−3 1/min
